Measurements reported in ChEMBL document CHEMBL3997841, “Continued optimization of the M5 NAM ML375: Discovery of VU6008667, an M5 NAM with high CNS penetration and a desired short half-life in rat for addiction studies” (Bioorg Med Chem Lett, 2017).

Amino acid sequences for entries named in this document (tags omitted).
UniProt P08912, whole entry: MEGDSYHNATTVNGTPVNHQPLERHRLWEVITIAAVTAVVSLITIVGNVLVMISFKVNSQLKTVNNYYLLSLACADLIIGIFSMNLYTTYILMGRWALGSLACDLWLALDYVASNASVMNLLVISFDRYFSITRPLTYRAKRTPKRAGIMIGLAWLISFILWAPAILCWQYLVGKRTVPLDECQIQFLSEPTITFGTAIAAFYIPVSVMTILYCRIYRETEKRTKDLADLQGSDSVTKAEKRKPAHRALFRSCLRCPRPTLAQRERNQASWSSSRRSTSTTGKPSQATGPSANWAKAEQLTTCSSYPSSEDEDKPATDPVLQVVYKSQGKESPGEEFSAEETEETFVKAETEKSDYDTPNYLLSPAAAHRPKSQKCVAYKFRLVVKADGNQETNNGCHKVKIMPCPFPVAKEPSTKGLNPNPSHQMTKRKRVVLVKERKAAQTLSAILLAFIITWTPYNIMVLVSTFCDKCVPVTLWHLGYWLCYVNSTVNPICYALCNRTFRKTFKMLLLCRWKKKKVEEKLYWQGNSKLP

Target: Muscarinic acetylcholine receptor M5 (Homo sapiens, UniProt P08912)
Assay: Negative allosteric modulation of human M5 receptor expressed in CHO cells assessed as inhibition of acetyl choline-induced calcium mobilization at 10 uM preincubated for 150 secs followed by acetyl choline addition by Fluo-4-AM dye based fluorescence assay relative to acetyl choline; values are per cent of control

| Structure (SMILES) | residual activity |
| --- | --- |
| Cc1cc([C@@]23c4ccccc4C(=O)N2CCN3C(=O)c2ccc(F)c(F)c2)ccc1Cl | 2.3% |
| Cc1cc(C23c4ccccc4C(=O)N2CCN3C(=O)c2ccc(F)c(F)c2)ccc1Cl (racemic) | 2.9% |
